Assay results: paper PMC4991607 (Assay and Drug Development Technologies, 2016)

By UniProt entry, the sequences of proteins in these tests, tags left out. Residues count along the entry.
UniProt P17787, 26-502: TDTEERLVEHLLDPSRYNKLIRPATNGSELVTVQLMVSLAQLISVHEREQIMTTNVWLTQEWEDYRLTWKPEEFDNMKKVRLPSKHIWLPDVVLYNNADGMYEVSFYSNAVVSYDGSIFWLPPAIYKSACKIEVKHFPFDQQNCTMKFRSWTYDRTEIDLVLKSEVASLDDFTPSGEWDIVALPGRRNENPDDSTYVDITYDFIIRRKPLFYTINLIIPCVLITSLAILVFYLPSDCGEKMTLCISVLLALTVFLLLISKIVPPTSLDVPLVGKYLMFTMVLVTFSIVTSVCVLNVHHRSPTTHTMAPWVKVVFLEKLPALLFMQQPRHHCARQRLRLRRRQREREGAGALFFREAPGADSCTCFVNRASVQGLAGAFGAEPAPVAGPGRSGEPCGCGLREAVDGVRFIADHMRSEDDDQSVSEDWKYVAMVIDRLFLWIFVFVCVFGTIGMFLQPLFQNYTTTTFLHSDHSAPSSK
UniProt P43681, 27-627: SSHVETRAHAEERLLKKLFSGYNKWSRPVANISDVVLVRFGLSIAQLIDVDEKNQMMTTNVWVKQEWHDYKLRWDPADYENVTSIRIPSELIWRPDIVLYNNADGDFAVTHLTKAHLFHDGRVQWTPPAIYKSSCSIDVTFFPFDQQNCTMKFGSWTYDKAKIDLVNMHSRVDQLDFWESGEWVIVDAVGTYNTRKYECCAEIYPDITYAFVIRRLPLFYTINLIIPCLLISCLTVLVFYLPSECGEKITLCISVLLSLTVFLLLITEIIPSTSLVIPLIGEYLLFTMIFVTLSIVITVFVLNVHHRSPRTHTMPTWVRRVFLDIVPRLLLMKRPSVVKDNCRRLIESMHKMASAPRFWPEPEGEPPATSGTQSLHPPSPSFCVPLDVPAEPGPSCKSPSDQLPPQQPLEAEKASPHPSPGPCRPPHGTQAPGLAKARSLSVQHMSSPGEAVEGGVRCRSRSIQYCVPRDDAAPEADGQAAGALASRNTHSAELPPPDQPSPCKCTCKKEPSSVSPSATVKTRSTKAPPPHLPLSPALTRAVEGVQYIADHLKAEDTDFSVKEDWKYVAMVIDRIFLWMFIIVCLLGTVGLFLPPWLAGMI

Target: human α4β2 nicotinic acetylcholine receptor (Homo sapiens, UniProt P17787+P43681)
Conditions: two-site model

CO[C@H]1CC=C2CCN3CCC4=C(CC(=O)OC4)[C@]23C1 [DHβE, dihydro-β-erythroidine]
high-sensitivity component, share of channel population: 82% | low-sensitivity component, share of channel population: 18%
